Laboratory results from ChEMBL document CHEMBL1127594, “Inhibitors of acyl-CoA:cholesterol O-acyltransferase. 11. Structure-activity relationships of several series of compounds derived from N-(chlorocarbonyl) isocyanate” (J Med Chem, 1994).

Protein sequences, listed by entry. Tags and fused reporters are not part of them. Residues count along the entry.
UniProt G1SFD9, 1-524: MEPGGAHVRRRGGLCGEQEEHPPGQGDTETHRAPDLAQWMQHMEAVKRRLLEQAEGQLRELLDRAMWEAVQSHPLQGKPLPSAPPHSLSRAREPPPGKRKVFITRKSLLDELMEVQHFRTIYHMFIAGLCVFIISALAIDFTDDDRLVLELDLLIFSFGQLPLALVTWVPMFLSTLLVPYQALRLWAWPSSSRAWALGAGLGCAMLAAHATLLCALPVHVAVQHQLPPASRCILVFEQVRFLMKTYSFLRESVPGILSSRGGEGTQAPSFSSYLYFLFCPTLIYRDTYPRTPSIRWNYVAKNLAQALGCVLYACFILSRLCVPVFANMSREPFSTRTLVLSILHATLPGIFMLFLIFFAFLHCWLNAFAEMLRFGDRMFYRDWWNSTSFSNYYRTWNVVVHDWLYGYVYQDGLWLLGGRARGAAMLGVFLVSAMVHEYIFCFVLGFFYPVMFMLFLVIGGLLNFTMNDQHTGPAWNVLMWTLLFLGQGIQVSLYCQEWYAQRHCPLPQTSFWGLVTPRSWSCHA

Target: O-acyltransferase (Oryctolagus cuniculus, UniProt G1SFD9)
Assay: In vitro Acyl coenzyme A:cholesterol acyltransferase inhibitory activity (IAI) was determined by measuring the incorporation of [1-14C]oleolyl-CoA into cholesterol esters by intestinal microsomes isolated from cholesterol-fed rabbits
Parameters: species or system Intestine

Question: How did the IC50 turn out when `CCCCCCCCCCC(C)OC(=O)NC(=O)Nc1c(C(C)C)cccc1C(C)C` (stereo unspecified) was run?
Answer: Its IC50 is 350 nM.
